The nature of the data set: Retention time of the compound by HPLC-MASS analysis. Format: physicochemical.

As to `ClCCN(CCCl)c1ccccc1`, the Retention time was 3.3 min.

These data come from ChEMBL document CHEMBL6096722, “A Hypoxia-Activated BODIPY-Azo Anticancer Prodrug for Bimodal Chemo-Photodynamic Therapy” (J Med Chem, 2025).
